Source: PubChem BioAssay AID504339 (National Center for Advancing Translational Sciences (NCATS), 2011)
This is a selection; strong and weak results do not stand in their true shares. Results filed as inconclusive are left out. Where a call stands in place of a potency, no number is given. Activity calls are given as the source filed them. Calls come from the whole dose curve; as a rule, active = well fitted inhibition curve with a large enough effect; inconclusive = small, poorly fitted or top-dose-only effect; inactive = no such curve, though single readings can be large or run the other way.

Protein sequences, listed by entry. Tags and fused reporters are not part of them.
UniProt O75164, whole entry: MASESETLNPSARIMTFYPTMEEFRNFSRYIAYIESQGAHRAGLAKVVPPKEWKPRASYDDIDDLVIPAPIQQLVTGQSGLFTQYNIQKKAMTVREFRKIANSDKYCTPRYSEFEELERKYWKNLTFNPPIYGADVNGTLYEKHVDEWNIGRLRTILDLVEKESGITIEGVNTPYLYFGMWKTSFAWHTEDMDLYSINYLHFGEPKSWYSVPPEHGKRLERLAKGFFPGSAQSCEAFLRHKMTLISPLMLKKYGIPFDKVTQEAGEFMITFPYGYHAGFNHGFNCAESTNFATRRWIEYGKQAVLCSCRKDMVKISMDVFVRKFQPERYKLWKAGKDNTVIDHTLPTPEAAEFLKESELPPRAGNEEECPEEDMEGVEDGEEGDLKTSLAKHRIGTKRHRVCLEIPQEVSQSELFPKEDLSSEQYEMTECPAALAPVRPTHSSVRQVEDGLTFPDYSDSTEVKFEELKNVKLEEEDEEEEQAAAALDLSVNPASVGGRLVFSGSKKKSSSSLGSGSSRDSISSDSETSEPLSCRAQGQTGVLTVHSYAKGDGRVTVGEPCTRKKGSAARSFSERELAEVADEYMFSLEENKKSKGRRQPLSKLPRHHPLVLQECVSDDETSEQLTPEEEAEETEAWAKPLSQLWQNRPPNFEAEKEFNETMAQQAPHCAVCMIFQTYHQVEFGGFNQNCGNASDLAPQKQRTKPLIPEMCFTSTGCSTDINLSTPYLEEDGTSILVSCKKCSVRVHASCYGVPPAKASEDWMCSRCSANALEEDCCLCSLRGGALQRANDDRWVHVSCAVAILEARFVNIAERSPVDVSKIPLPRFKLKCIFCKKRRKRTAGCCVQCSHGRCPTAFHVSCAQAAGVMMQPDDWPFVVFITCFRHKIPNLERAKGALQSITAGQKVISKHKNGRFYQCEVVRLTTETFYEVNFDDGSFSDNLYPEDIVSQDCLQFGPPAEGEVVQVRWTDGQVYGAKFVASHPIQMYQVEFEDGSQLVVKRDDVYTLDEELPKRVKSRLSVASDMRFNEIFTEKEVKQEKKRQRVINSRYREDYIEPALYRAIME

molecular target: Lysine-specific demethylase 4A (Homo sapiens) (UniProt O75164); experiment: qHTS Assay for Inhibitors of JMJD2A-Tudor Domain; settings: AlphaScreen JMJD2A-Tudor / H3K4me3 peptide binding; series mostly up to 114 µM; note: nearly all actives have a fitted effect of over 50% in size
Potency is the fitted concentration of half-maximal effect.

Structure (SMILES) | Potency
CCC(CO)(C(=O)OC1CN2CCC1CC2)c1ccccc1 (stereo not given) | inactive
COc1cccc(C(=O)N(c2cc(C)cc(C)c2)C2CCN(C(=O)OC(C)(C)C)CC2)c1 | inactive
COc1cc(OC)cc(C(=O)NCC2(N3CCOCC3)CCCCC2)c1 | inactive
COc1cc(C(=O)NCC2(N3CCOCC3)CCCCC2)cc(OC)c1OC | inactive
CN1CCC(Nc2ccc(Cl)cc2)CC1 | inactive
CN1CCC(Nc2ccc(F)c(Cl)c2)CC1 | active: 7.94 µM
CCOc1ncccc1C(=O)NCC1(N2CCOCC2)CCCCC1 | inactive
CCCOc1ccc(C(=O)NCC2(N(C)C)CCCCC2)cc1 | inactive
O=C(O)C1(Nc2ccccc2)CCN(Cc2ccccc2)CC1 | inactive
CC(C)(C)OC(=O)N1CCC(Nc2ccccc2)CC1 | inactive
CCN1CCC(Nc2cccc(F)c2)CC1 | active: 3.55 µM
Cc1ccccc1NC1(C#N)CCN(Cc2ccccc2)CC1 | inactive
CN(C)c1ccc(C(=O)NCC2(N3CCCCC3)CCCCC2)cc1 | inactive
Cn1c(=O)[nH]cc(N(CCCl)CCCl)c1=O | inactive
O=C(NCC1(N2CCCCC2)CCCCC1)c1ccco1 | inactive
CC(C)(C)c1ccc(C(=O)NCC2(N3CCOCC3)CCCCC2)cc1 | inactive
Cc1ccccc1C(=O)NCC1(N(C)C)CCCCC1 | inactive
COc1cc(OC)cc(C(=O)NCC2(N3CCCCC3)CCCCC2)c1 | inactive
CN(C)C1(CNC(=O)c2ccc(C(C)(C)C)cc2)CCCCC1 | inactive
CC(=O)N(c1ccccc1)C1CCNCC1 | inactive
Cc1ccc(NC2(C#N)CCN(Cc3ccccc3)CC2)cc1 | inactive
Fc1ccccc1NC1CCN(Cc2ccccc2)CC1 | active: 79.4 µM
Cc1ccc(C(=O)NCC2(N3CCCCC3)CCCCC2)o1 | inactive

Structure (SMILES) | Potency
O=C(NCC1(N2CCOCC2)CCCCC1)c1ccccc1 | inactive
Cc1cc(N(CCCl)CCCl)ccc1C=O | inactive
CCCN1CCC(Nc2cc(OC)cc(OC)c2)CC1 | inactive
c1ccc(CN2CCC(Nc3ccccc3)CC2)cc1 | inactive
CN(C)C1(CNC(=O)c2cccc(C#N)c2)CCCCC1 | inactive
CC(C)(C)OC(=O)N1CCC(N(C(=O)c2ccccc2)c2ccc(Cl)cc2)CC1 | inactive
O=C(NCC1(N2CCOCC2)CCCCC1)c1ccc([N+](=O)[O-])cc1 | inactive
O=C(NCC1(N2CCOCC2)CCCCC1)c1ccccc1[N+](=O)[O-] | inactive
N#Cc1ccc(C(=O)NCC2(N3CCCCC3)CCCCC2)cc1 | inactive
CCOC(=O)C(CC)C1=NC(C)(C)Cc2ccccc21.O=[N+]([O-])c1cc([N+](=O)[O-])c(O)c([N+](=O)[O-])c1 (stereo not given) | inactive
N/C(=N\O)c1c(N)no[n+]1[O-] | inactive
CCOC(=O)N1CCC(Nc2ccc(C)cc2)CC1 | inactive
O=C(O)c1cccc(Nc2c([N+](=O)[O-])cc([N+](=O)[O-])cc2[N+](=O)[O-])c1 | inactive
CCc1cc(C(=O)NCC2(N3CCCCC3)CCCCC2)sc1C | inactive
O=C(OC1CN2CCC1CC2)C1c2ccccc2C=Cc2ccccc21 (stereo not given) | inactive
O=C(NCC1(N2CCOCC2)CCCCC1)c1cc(Br)ccc1Cl | inactive
COc1cc(C(=O)NCC2(N3CCOCC3)CCCCC2)cc(OC)c1C | inactive
COc1ccc(C(=O)NCC2(N3CCOCC3)CCCCC2)cc1OC | inactive
CN1CCC(Nc2cccc(F)c2)CC1 | active: 22.4 µM
O=C(NCC1(N2CCCCC2)CCCCC1)c1cncc(Br)c1 | inactive
O=C(OC1CN2CCC1CC2)c1ccc([N+](=O)[O-])cc1 (stereo not given) | inactive
O=C(NCC1(N2CCOCC2)CCCCC1)c1ccccc1Br | inactive
CCCOc1ccc(C(=O)NCC2(N(C)C)CCCCC2)cc1OC | inactive

Structure (SMILES) | Potency
CCCCOc1ccccc1C(=O)NCC1(N2CCOCC2)CCCCC1 | inactive
CN(C)c1cccc(C(=O)NCC2(N3CCCCC3)CCCCC2)c1 | inactive
O=[N+]([O-])c1cc([N+](=O)[O-])c(OC2CCCCC2O)c([N+](=O)[O-])c1 (stereo not given) | inactive
O=C(NCC1(N2CCOCC2)CCCCC1)c1cc(F)c(F)cc1Cl | inactive
COc1cc(OC)c(C(=O)NCC2(N(C)C)CCCCC2)cc1OC | inactive
O=C(NCC1(N2CCCCC2)CCCCC1)c1cccc(C(F)(F)F)c1 | inactive
CCCOc1cccc(C(=O)NCC2(N3CCOCC3)CCCCC2)c1 | inactive
O=[N+]([O-])c1cc([N+](=O)[O-])c(NCC2CCS(=O)(=O)C2)c([N+](=O)[O-])c1 (stereo not given) | inactive
CC(C)c1ccc(C(=O)NCC2(N3CCOCC3)CCCCC2)cc1 | inactive
COc1ccc(NC2CCN(C(=O)OC(C)(C)C)CC2)cc1 | inactive
CN1CCN(CCOC(=O)C(O)(c2ccccc2)c2ccccc2)CC1 | inactive
O=C(NCC1(N2CCOCC2)CCCCC1)c1cc(=O)[nH]c2ccccc12 | inactive
COc1cc(C(=O)NCC2(N3CCCCC3)CCCCC2)ccc1OC(F)F | inactive
O=C(NCC1(N2CCCCC2)CCCCC1)c1ccc(OC(F)F)cc1 | inactive
CCOc1ccc(C(=O)NCC2(N3CCOCC3)CCCCC2)cc1 | inactive
O=C(NCC1(N2CCCCC2)CCCCC1)c1cccc([N+](=O)[O-])c1 | inactive
CSc1ccc(C(=O)NCC2(N3CCOCC3)CCCCC2)cc1 | inactive
N#CC1(Nc2ccccc2)CCN(CCc2ccccc2)CC1 | inactive
CCN1CCC(Nc2ccc(Cl)cc2)CC1 | inactive
CCOC(=O)N1CCC(Nc2cccc(C)c2)CC1 | inactive
COc1cc(C(=O)NCC2(N(C)C)CCCCC2)ccc1OC(F)F | inactive
CCOc1ccc(C)cc1CN(CCCl)CCCl | active: 70.8 µM
O=C1CCN(Cc2ccccc2)CC1 | inactive

Structure (SMILES) | Potency
O=C(NCC1(N2CCOCC2)CCCCC1)c1ccc(Cl)cc1 | inactive
CCOC(=O)N1CCC(Nc2ccc(F)cc2)CC1 | inactive
CCCCOc1ccc(C(=O)NCC2(N3CCOCC3)CCCCC2)cc1 | inactive
O=P1(N(CCCl)CCCl)SCCCS1 | inactive
O=C(NCC1(N2CCCCC2)CCCCC1)c1ccc(F)cc1 | inactive
COc1ccccc1C(=O)NCC1(N2CCOCC2)CCCCC1 | inactive
O=C(NCC1(N2CCOCC2)CCCCC1)c1cc2ccccc2o1 | inactive
Cc1cc(C)cc(N(C(=O)c2ccccc2)C2CCN(C(=O)OC(C)(C)C)CC2)c1 | inactive
O=C(NCC1(N2CCCCC2)CCCCC1)c1ccc(Cl)nc1 | inactive
CCOC(=O)N1CCC(Nc2ccc(OC)cc2)CC1 | inactive
COc1ccc(Cl)cc1C(=O)NCC1(N2CCOCC2)CCCCC1 | inactive
O=C(NCC1(N2CCCCC2)CCCCC1)c1ccc(Cl)s1 | inactive
N#CC1(Nc2ccccc2)CCN(Cc2ccccc2)CC1 | inactive
O=C(OC1CN2CCC1CC2)C1c2ccccc2Oc2ccccc21 (stereo not given) | inactive
O=C(NCC1(N2CCCCC2)CCCCC1)c1cccs1 | inactive
O=C(NCC1(N2CCCCC2)CCCCC1)c1ccc(=O)[nH]c1 | inactive
CC(C)(C)OC(=O)N1CCC(N(C(=O)c2ccccc2)c2ccc(F)cc2)CC1 | inactive
COc1ccc(C(=O)NCC2(N3CCCCC3)CCCCC2)c(OC)c1OC | inactive
COc1ccc(C(=O)NCC2(N3CCCCC3)CCCCC2)cc1 | inactive
Cc1cccc(NC2(C#N)CCN(Cc3ccccc3)CC2)c1 | inactive
CSc1ccccc1C(=O)NCC1(N2CCCCC2)CCCCC1 | inactive
